Like-named read-outs stand apart in the source and are kept apart here. Bounds are passed on as bounds.

Assay [1] addresses DEN3V NS2B-G4SG4NS3 serine protease (Dengue virus type 3, UniProt Q6YMS4). Nature of the assay: DEN3V protease inhibition assay.
The target in assay [2] is DEN4V NS2B-G4SG4NS3 serine protease (Dengue virus type 4, UniProt P09866). The experiment in a line: DEN4V protease inhibition assay.
Assay [3] addresses DEN2V NS2B-G4SG4-NS3 serine protease (Dengue virus type 2, UniProt Q91H74). The experiment in a line: DEN2V protease inhibition assay.
Assay [4] has as its target DEN1V NS2B-G4SG4NS3 serine protease (Dengue virus type 1, UniProt P17763). Nature of the assay: DEN1V protease inhibition assay.

As for `NC1CC(C[n+]2cc([N-]C(=O)Nc3cc(NC(=O)Cc4ccccc4)cc(C(F)(F)F)c3)on2)C1` (stereo not drawn) [Example 118, (3-((3-Aminocyclobutyl)methyl)-1,2,3-oxadiazol-3-ium-5-yl)((3-(2-phenylacetamido)-5-(trifluoromethyl)phenyl)carbamoyl)amide], the IC50 in assay [1] is 100 to 1000 nM; in assay [2], 1000 to 20000 nM; in assay [3] it was below 100 nM; in assay [4], 1000 to 20000 nM.

Consider `NC[C@H]1CC[C@@H]([n+]2cc([N-]C(=O)Nc3cc(N4CCC(c5ccccc5)C4=O)cc(C(F)(F)F)c3)on2)CC1` (stereo partly drawn) [Example 119, (3-((1S,4S)-4-(Aminomethyl)cyclohexyl)-1,2,3-oxadiazol-3-ium-5-yl)((3-(2-oxo-3-phenylpyrrolidin-1-yl)-5-(trifluoromethyl)phenyl)-carbamoyl)amide], for which the IC50 was 100 to 1000 nM in assay [1], 1000 to 20000 nM in assay [2], below 100 nM in assay [3] and 1000 to 20000 nM in assay [4].

Take `O=C(Cc1ccc2nc[nH]c2c1)Nc1cc(NC(=O)[N-]c2c[n+](Cc3ccccn3)no2)cc(C(F)(F)F)c1` [Example 124, ((3-(2-(1H-Benzo[d]imidazol-6-yl)acetamido)-5-(trifluoromethyl)phenyl)carbamoyl)(3-(pyridin-2-ylmethyl)-1,2,3-oxadiazol-3-ium-5-yl)amide]: the IC50 is 100 to 1000 nM in assay [1], 1000 to 20000 nM in assay [2], below 100 nM in assay [3] and 1000 to 20000 nM in assay [4].

On to `CN1CCCCC1C[n+]1cc([N-]C(=O)Nc2cc(NC(=O)Cc3ccccc3)cc(C3CC3)c2)on1` (stereo not drawn) [Example 127], for which the IC50 in assay [1] (read-out: Dengue 3 - NS3 protease) was 100 to 1000 nM; in assay [2] (read-out: Dengue 4 - NS3 protease), 1000 to 20000 nM; in assay [3] (read-out: Dengue 2 - NS3 protease), below 100 nM; in assay [4] (read-out: Dengue 1 - NS3 protease), 1000 to 20000 nM.

Turning to `O=C(Cc1ccccc1)Nc1cc(NC(=O)[N-]c2c[n+](Cc3ccc(CO)cn3)no2)cc(C2CC2)c1` [Example 129, ((3-Cyclopropyl-5-(2-phenylacetamido)phenyl)-carbamoyl)(3-((5-(hydroxymethyl)pyridin-2-yl)methyl)-1,2,3-oxadiazol-3-ium-5-yl)amide], the IC50 in assay [1] was below 100 nM; in assay [2] it was 100 to 1000 nM; in assay [3], below 100 nM; in assay [4], 1000 to 20000 nM.

With `C[C@@H]1C[C@H]1c1cc(NC(=O)Cc2ccccc2)cc(NC(=O)[N-]c2c[n+](Cc3ccccn3)no2)c1` [Example 130, ((3-((1R,2R)-2-Methylcyclopropyl)-5-(2-phenylacetamido)phenyl)-carbamoyl)(3-(pyridin-2-ylmethyl)-1,2,3-oxadiazol-3-ium-5-yl)amide], the IC50 was 100 to 1000 nM in assay [1], 1000 to 20000 nM in assay [2], below 100 nM in assay [3] and 1000 to 20000 nM in assay [4].

Consider `O=C([N-]c1c[n+]([C@H]2CC[C@@H](CNCC(F)(F)F)CC2)no1)Nc1cc(N2CCC(c3ccccc3)C2=O)cc(C(F)(F)F)c1` (stereo partly drawn) [Example 135, ((3-(2-Oxo-3-phenylpyrrolidin-1-yl)-5-(trifluoromethyl)phenyl)carbamoyl)(3-((1S,4S)-4-(((2,2,2-trifluoroethyl)amino)methyl)-cyclohexyl)-1,2,3-oxadiazol-3-ium-5-yl)amide], for which the IC50 was 1000 to 20000 nM in assay [1], 1000 to 20000 nM in assay [2], 100 to 1000 nM in assay [3] and above 20000 nM in assay [4].

`CN(C)C[C@H]1CC[C@@H]([n+]2cc([N-]C(=O)Nc3cc(N4CCC(c5ccccc5)C4=O)cc(C(F)(F)F)c3)on2)CC1` (stereo partly drawn) [Example 138, (3-((1S,4S)-4-((Dimethylamino)methyl)-cyclohexyl)-1,2,3-oxadiazol-3-ium-5-yl)((3-(2-oxo-3-phenylpyrrolidin-1-yl)-5-(trifluoromethyl)-phenyl)carbamoyl)amide]: the IC50 was 100 to 1000 nM in assay [1], 1000 to 20000 nM in assay [2], below 100 nM in assay [3] and 1000 to 20000 nM in assay [4].

For `O=C([N-]c1c[n+](C[C@H]2CC[C@@H](CNCC(F)(F)F)CC2)no1)Nc1cc(N2CCC(c3ccccc3)C2=O)cc(C(F)(F)F)c1` (stereo partly drawn) [Example 139, ((3-(2-Oxo-3-phenylpyrrolidin-1-yl)-5-(trifluoromethyl)phenyl)carbamoyl)(3-(((1s,4s)-4-(((2,2,2-trifluoroethyl)amino)methyl)cyclohexyl)-methyl)-1,2,3-oxadiazol-3-ium-5-yl)amide], the IC50 in assay [1] is 100 to 1000 nM; in assay [2] it was 1000 to 20000 nM; in assay [3] it was below 100 nM; in assay [4], above 20000 nM.

Take `N[C@H]1CC[C@H](C[n+]2cc([N-]C(=O)Nc3cc(N4CC[C@H](c5ccccc5)C4=O)cc(C(F)(F)F)c3)on2)CC1` [Example 143, (3-(((1R,4R)-4-Aminocyclohexyl)methyl)-1,2,3-oxadiazol-3-ium-5-yl)((3-((R)-2-oxo-3-phenylpyrrolidin-1-yl)-5-(trifluoromethyl)-phenyl)carbamoyl)amide]: the IC50 is 100 to 1000 nM in assay [1], 1000 to 20000 nM in assay [2], below 100 nM in assay [3] and 1000 to 20000 nM in assay [4].

`O=C([N-]c1c[n+](C[C@H]2CC[C@H](NCC(F)(F)F)CC2)no1)Nc1cc(N2CC[C@H](c3ccccc3)C2=O)cc(C(F)(F)F)c1` [Example 144, ((3-((R)-2-Oxo-3-phenylpyrrolidin-1-yl)-5-(trifluoromethyl)phenyl)carbamoyl)(3-(((1r,4r)-4-((2,2,2-trifluoroethyl)amino)cyclohexyl)-methyl)-1,2,3-oxadiazol-3-ium-5-yl)amide]: the IC50 in assay [1] is 100 to 1000 nM; in assay [2], 100 to 1000 nM; in assay [3], below 100 nM; in assay [4], above 20000 nM.

With `CN(C)C[C@H]1CC[C@H]([n+]2cc([N-]C(=O)Nc3cc(NC(=O)Cc4ccccc4)cc(C(F)(F)F)c3)on2)CC1` [Example 147, (3-((1R,4R)-4-((Dimethylamino)methyl)-cyclohexyl)-1,2,3-oxadiazol-3-ium-5-yl)((3-(2-phenylacetamido)-5-(trifluoromethyl)phenyl)-carbamoyl)amide], the IC50 in assay [1] (read-out: Dengue 3 - NS3 protease, Table 5, letter codes for IC50) was 100 to 1000 nM; in assay [2] (read-out: Dengue 4 - NS3 protease, Table 5, letter codes for IC50), 100 to 1000 nM; in assay [3] (read-out: Dengue 2 - NS3 protease, Table 5, letter codes for IC50), below 100 nM; in assay [4] (read-out: Dengue 1 - NS3 protease, Table 5, letter codes for IC50), 1000 to 20000 nM.
